Earlier results as cited in patent US7517693B2, “Method and apparatus for determining a molecular descriptor of absorption for a candidate compound” (North Carolina State University, priority 2002, dated 2009).

Experiments:
[1] = Table IV study compounds
[2] = Table III calibration compounds, known literature descriptor

Structure (SMILES) | logKo/w [1] | logL^16 (solute gas-hexadecane partition coefficient) ([2]; 25° C.) | α (effective solute H-bond acidity) [2] | β (effective solute H-bond basicity) [2] | π (effective solute dipolarity and polarizability) [2]
c1ccc2ccccc2c1 [Naphthalene] | 3.30 | – | – | – | –
CCCCOCCCC [Di-n-butyether] | – | 3.924 | 0.00 | 0.45 | 0.25
c1ccccc1 [Benzene] | 2.13 | – | – | – | –
